Biological target: T1, CDK9/CycT1 (Homo sapiens, UniProt P50750)
T1 construct: purchased Carna Biosciences
Test: Kinase panel profiling at 1 µmol/L (mobility shift assay, Carna)
Assay type: biochemical
Settings: 1 µmol/L of BTK inhibitor

Protein sequences, listed by entry. Tags and fused reporters are not part of them.
UniProt P50750, whole entry: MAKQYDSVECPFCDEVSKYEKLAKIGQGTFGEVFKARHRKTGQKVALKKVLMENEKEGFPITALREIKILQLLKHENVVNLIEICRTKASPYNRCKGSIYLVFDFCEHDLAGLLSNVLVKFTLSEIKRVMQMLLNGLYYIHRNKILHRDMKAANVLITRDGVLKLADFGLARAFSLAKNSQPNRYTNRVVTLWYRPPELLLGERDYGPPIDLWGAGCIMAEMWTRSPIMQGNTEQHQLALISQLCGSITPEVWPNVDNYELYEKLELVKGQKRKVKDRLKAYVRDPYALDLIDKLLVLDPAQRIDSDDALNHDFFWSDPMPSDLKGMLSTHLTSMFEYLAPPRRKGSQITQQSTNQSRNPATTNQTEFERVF

## C=CC(=O)N1CCC[C@@H](n2nc(-c3ccc(Oc4ccccc4)cc3)c3c(N)ncnc32)C1 [ibrutinib]
  Percentage inhibition of kinase enzyme activity: 3.45%
